Intrinsic clearance values, as collected for the OPERA models

Data: OPERA 2.9 data sets, kmansouri/OPERA on GitHub.

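OPERA's authors assembled the values from existing databases and did not measure them anew. The files give a single number for a compound and property, which may rest on several reports. Method, purity and exact conditions of the single measurements are not given. A value may pool stereoisomers or salt forms, and the file does not say which form was measured. Some upstream entries may be estimates or bounds without being marked so.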

Clint is human hepatic intrinsic clearance in µL/min per million cells; 0 means that no clearance was seen.
"n/a" marks a cell with nothing listed here.

structure (SMILES)	name	hepatic Clint (µL/min/10^6 cells)
Cc1cccc2ccccc12	1-methylnaphthalene	443
CCCCOC(=O)c1ccccc1	Butyl benzoate	864
O=C1CCCCCN1	Caprolactam	0
COC(=O)C1=C(C)NC(C)=C(C(=O)OC(C)C)C1c1cccc2nonc12 (stereo unspecified)	Isradipine	47.6
c1ccc2c(c1)Cc1ccccc1-2	Diphenylenemethane	12.08
CCCCOC(=O)CCCCCCCCC(=O)OCCCC	Dibutyl decanedioate	134
c1ccc(Nc2ccccc2)cc1	Diphenylamine	64.57
C#C[C@]1(O)CC[C@H]2[C@@H]3CCc4cc(O)ccc4[C@H]3CC[C@@]21C	Ethinylestradiol	0
CCCCCCOc1ccc(N)cc1	4-hexyloxyanilline	79.3
C[C@]12C=CC(=O)C=C1CC[C@@H]1[C@@H]2[C@@H](O)C[C@@]2(C)[C@H]1CC[C@]2(O)C(=O)CO	Prednisolone	5.841
O=C(c1ccc(O)cc1)c1ccc(O)cc1O	2,4,4'-trihydroxybenzophenone	21.1
CCCCCCCCCCCCCOP(=O)(O)O	Monotridecyl phosphate	18.8
CCCOC(=O)NCCCN(C)C.Cl	Propamocarb hydrochloride	5.81
Cl.N=C1C=CC(=C(c2ccc(N)cc2)c2ccc(N)cc2)C=C1	C.i. basic red 9 monohydrochloride	3.23
O=c1[nH]sc2ccccc12	1,2-benzisothiazolin-3-one	34.74
CCCCCCCCC	Nonane	0.7797
COC(=O)c1ccccc1C(=O)O	Monomethyl phthalate	0
CCC(C)(C)OC	Tert-amyl methyl ether	2.1
CC(C)c1cccc(O)c1	3-isopropylphenol	19.9
Cc1ccc(C)c(OCCCC(C)(C)C(=O)O)c1	Gemfibrozil	58.72
CCCCC(CCC)C(=O)O (stereo unspecified)	2-n-propyl-hexanoic acid	0.0143
CCNc1cccc(C)c1	N-ethyl-3-methylaniline	13.12
Cn1cnc2c1c(=O)[nH]c(=O)n2C	Theobromine	396
CCCc1ccc(O)c(OC)c1	2-methoxy-4-propylphenol	24.6
COc1ccc(S(=O)(=O)N2C(=O)[C@@](c3ccccc3OC)(N3C[C@H](O)C[C@H]3C(=O)N(C)C)c3cc(Cl)ccc32)c(OC)c1	Nelivaptan	35.3
Cc1ccc(C)c(C)c1	1,2,4-trimethylbenzene	1.846
O=C1OC(c2ccc(O)cc2)(c2ccc(O)cc2)c2ccccc21	Phenolphthalein	47.4
O=C(O)c1cc(/N=N/c2ccc(S(=O)(=O)Nc3ccccn3)cc2)ccc1O	Sulfasalazine	5.16
NC(=O)Cn1c(=O)cc(CCN2CCN(c3nccc4sccc34)CC2)c2ccc(F)cc21	Trelanserin	7.06
CC(=O)c1ccc2c(c1)[C@H](NC(=O)c1ccc(F)cc1)[C@@H](O)C(C)(C)O2	Carabersat	0
CC(=O)OC1CC(C)OC(C)O1 (stereo unspecified)	Dimethoxane	863
C=CCc1ccc(O)c(OC)c1	Eugenol	103.6
COc1nc(C)nc(NC(=O)NS(=O)(=O)c2ccccc2OCCCl)n1	Triasulfuron	14.58
CCCCCCCCCCCCN1CCCC1=O	1-dodecyl-2-pyrrolidinone	19.1
CC(C)(c1ccccc1)c1ccc(Nc2ccc(C(C)(C)c3ccccc3)cc2)cc1	n/a	0
COc1cc(O)c(C(=O)c2ccccc2)cc1S(=O)(=O)O	Sulisobenzone	1.05
Cc1ccc(C)c(O)c1	2,5-dimethylphenol	33.8
N[C@@H](Cc1cc(I)c(Oc2cc(I)c(O)c(I)c2)c(I)c1)C(=O)O	Levothyroxine	0
Oc1ccc2c(c1)-c1ccccc1C2	3-hydroxyfluorene	20.56
O=C1NC(=O)C(c2ccccc2)(c2ccccc2)N1	Phenytoin	0.8178
CC(C)(C)NCC(O)c1cc(O)cc(O)c1 (stereo unspecified)	Terbutaline	0

A selection of 6 entries from above:

structure (SMILES)	name	hepatic Clint (µL/min/10^6 cells)
Cn1cnc2c1c(=O)[nH]c(=O)n2C	Theobromine	396
O=C(O)c1cc(/N=N/c2ccc(S(=O)(=O)Nc3ccccn3)cc2)ccc1O	Sulfasalazine	5.16
CCCc1ccc(O)c(OC)c1	2-methoxy-4-propylphenol	24.6
CC(=O)OC1CC(C)OC(C)O1 (stereo unspecified)	Dimethoxane	863
Cc1ccc(C)c(C)c1	1,2,4-trimethylbenzene	1.846
C=CCc1ccc(O)c(OC)c1	Eugenol	103.6